Experimental data as given in patent publication US20170157260A1, “Glycosylated Polypeptide and Drug Composition Containing said Polypeptide” (Glytech, Inc., priority 2011, published 2017).
Read-outs that look alike come from different tables or passages of the source.

Amino acid sequences for entries named in this document (tags omitted). A change or cut given only in a name is not applied to a line headed by its entry.
UniProt P30874: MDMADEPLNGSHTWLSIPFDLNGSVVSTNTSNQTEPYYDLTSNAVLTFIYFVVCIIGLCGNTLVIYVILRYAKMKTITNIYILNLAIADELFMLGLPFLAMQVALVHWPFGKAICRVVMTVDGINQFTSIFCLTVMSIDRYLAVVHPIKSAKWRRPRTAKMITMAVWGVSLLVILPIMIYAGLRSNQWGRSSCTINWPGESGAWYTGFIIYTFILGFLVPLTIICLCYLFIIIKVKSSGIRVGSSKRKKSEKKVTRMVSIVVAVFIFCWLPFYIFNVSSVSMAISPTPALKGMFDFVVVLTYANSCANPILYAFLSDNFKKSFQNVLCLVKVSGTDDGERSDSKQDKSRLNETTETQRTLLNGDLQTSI
UniProt P31391: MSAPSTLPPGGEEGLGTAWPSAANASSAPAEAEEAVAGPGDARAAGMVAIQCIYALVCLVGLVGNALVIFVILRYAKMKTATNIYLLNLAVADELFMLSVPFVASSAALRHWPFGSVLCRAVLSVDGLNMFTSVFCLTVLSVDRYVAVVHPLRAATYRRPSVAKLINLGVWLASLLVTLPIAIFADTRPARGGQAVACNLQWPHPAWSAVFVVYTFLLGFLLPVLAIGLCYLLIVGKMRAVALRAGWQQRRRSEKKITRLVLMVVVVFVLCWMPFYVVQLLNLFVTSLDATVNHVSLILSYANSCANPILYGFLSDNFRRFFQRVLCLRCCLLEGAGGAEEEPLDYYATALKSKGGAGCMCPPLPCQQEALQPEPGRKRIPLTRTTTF
UniProt P30872: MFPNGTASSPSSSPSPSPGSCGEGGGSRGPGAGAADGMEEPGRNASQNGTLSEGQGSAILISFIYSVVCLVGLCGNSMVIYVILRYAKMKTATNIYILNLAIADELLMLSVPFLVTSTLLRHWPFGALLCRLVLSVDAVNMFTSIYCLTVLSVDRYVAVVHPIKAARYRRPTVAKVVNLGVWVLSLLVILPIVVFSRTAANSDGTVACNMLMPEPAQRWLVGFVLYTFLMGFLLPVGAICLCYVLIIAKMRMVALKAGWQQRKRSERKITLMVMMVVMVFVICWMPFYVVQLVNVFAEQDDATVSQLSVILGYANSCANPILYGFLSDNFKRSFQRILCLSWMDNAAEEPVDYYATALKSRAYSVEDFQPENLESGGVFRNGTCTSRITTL
UniProt P32745: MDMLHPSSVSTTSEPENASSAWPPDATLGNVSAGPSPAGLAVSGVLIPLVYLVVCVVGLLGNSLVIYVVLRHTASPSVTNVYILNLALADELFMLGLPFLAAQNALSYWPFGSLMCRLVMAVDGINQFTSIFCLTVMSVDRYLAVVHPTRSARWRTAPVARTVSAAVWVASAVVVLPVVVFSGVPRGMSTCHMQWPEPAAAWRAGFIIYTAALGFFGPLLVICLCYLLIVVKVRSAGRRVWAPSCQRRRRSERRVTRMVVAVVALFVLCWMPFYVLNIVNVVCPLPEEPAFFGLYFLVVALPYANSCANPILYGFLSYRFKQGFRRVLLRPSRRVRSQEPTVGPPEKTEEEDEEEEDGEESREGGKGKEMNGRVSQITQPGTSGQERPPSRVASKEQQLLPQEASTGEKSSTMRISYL
UniProt P35346: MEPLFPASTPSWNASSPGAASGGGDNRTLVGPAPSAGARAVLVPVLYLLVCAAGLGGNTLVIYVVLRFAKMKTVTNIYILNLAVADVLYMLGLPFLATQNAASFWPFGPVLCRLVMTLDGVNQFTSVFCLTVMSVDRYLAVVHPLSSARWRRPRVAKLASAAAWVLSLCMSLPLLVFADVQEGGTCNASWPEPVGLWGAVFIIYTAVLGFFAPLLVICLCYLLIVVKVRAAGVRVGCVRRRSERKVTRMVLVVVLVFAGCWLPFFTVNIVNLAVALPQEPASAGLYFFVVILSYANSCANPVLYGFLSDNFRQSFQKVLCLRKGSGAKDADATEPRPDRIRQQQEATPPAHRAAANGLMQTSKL

Legend:
SSTR2 [1] = biological target: T1, SSTR2 (Homo sapiens, UniProt P30874); test: Competitive binding assay, SSTR2; conditions: Table 3B, Example 67-2, competitive binding assay; for IC50: read-out: SSTR2 IC50; for Ki: read-out: SSTR2 Ki
SSTR4 [2] = biological target: T2, SSTR4 (Homo sapiens, UniProt P31391); test: Competitive binding assay, SSTR4; conditions: Table 3B, Example 67-2, competitive binding assay
SSTR1 [3] = biological target: T3, SSTR1 (Homo sapiens, UniProt P30872); test: Competitive binding assay, SSTR1; conditions: for IC50: read-out: SSTR1 IC50
SSTR4 [4] = biological target: T2, SSTR4; test: Agonist activity evaluation (cAMP production suppression), SSTR4 receptor expression cells; type: cell-based
SSTR2 [5] = biological target: T1, SSTR2; test: Agonist activity evaluation (cAMP production suppression), SSTR2 receptor expression cells; type: cell-based; set-up: host or cells: CHO-K1 cells
[6] = Pharmacokinetics test with rats (intravenous and subcutaneous administration); conditions: for extension of t1/2 compared to the non-glycosylated form (SRIF28 or SRIF14) / increase of AUC compared to the non-glycosylated form (SRIF28 or SRIF14): administered intravenously; for BA: subcutaneous vs intravenous
SSTR3 [7] = biological target: T4, SSTR3 (Homo sapiens, UniProt P32745); test: Agonist activity evaluation (cAMP production suppression), SSTR3 receptor expression cells; type: cell-based; set-up: host or cells: CHO-K1 cells
SSTR5 [8] = biological target: T5, SSTR5 (Homo sapiens, UniProt P35346); test: Competitive binding assay, SSTR5; conditions: read-out: SSTR5 IC50; Table 3B, Example 67-2, competitive binding assay
SSTR3 [9] = biological target: T4, SSTR3; test: Competitive binding assay, SSTR3; conditions: Table 3B, Example 67-2, competitive binding assay; for IC50: read-out: SSTR3 IC50; for Ki: read-out: SSTR3 Ki
[10] = system: growth hormone (GH) production; test: GH production suppression test with rats; type: in vivo
SSTR3 [11] = biological target: T4, SSTR3
SSTR5 [12] = biological target: T5, SSTR5
SSTR1 [13] = biological target: T3, SSTR1; test: Agonist activity evaluation (cAMP production suppression), SSTR1 receptor expression cells; type: cell-based; conditions: Table 3D, Example 67-3; read-out: IC50 of cAMP production suppressing action (agonist activity), SSTR1
SSTR1 [14] = biological target: T3, SSTR1
SSTR5 [15] = biological target: T5, SSTR5; test: Agonist activity evaluation (cAMP production suppression), SSTR5 receptor expression cells; type: cell-based; set-up: host or cells: CHO-K1 cells; conditions: Table 3D, Example 67-3; read-out: IC50 of cAMP production suppressing action (agonist activity), SSTR5
SSTR1-SSTR5 = test: Competitive binding assay, statements over several receptors SSTR1-SSTR5; conditions: Example 67-1; approximately
SSTR2 [16] = biological target: T1, SSTR2
[17] = Table 3B, Example 67-2, competitive binding assay
[18] = read-out: SSTR1 Ki, Table 3B, Example 67-2, competitive binding assay
[19] = rats, intravenous administration, Tables 5B-5F (Examples 73-84)
[20] = rats, subcutaneous administration, Tables 5B-5F (Examples 73-84)
[21] = rats, Tables 5B-5F (Examples 73-84)
[22] = Table 8 (Example 87), dose 1 nmol/kg, vehicle 1012
[23] = Table 8 (Example 87), dose 3 nmol/kg, vehicle 1012
[24] = Table 8 (Example 87), dose 30 nmol/kg, vehicle 1012
[25] = Table 3D, Example 67-3, read-out: IC50 of cAMP production suppressing action (agonist activity), SSTR4
[26] = Table 3D, Example 67-3, read-out: IC50 of cAMP production suppressing action (agonist activity), SSTR2
[27] = Table 3D, Example 67-3, read-out: IC50 of cAMP production suppressing action (agonist activity), SSTR3
[28] = Table 4, rats, 40 nmol/kg intravenous
[29] = Table 4, rats, 40 nmol/kg subcutaneous
[30] = rats, intravenous administration, Table 5A (Examples 69-72), spread in the line below
[31] = rats, subcutaneous administration, Table 5A (Examples 69-72), spread in the line below

## 3C(disialo)-R-K-SRIF14 [Example 49]
SSTR2 [1]
  IC50: 32 nM
SSTR4 [2]
  IC50: > 100 nM
  Ki: > 90 nM
SSTR1 [3]; read-out: Ki value against SSTR1, Example 67-2 (text on Table 3B)
  Ki: 270 nM
SSTR1 [3]; [17]
  IC50: 270 nM
SSTR1 [3]; [18]
  Ki: 230 nM
SSTR4 [4]; Table 3E, Example 67-4, read-out: IC50 of the agonist activity, SSTR4
  IC50: 1.6 nM
SSTR2 [5]; Table 3E, Example 67-4, read-out: IC50 of the agonist activity, SSTR2
  IC50: 1.4 nM
[6]; rats
  extension of t1/2 compared to the non-glycosylated form (SRIF28 or SRIF14): 71 folds
  increase of AUC compared to the non-glycosylated form (SRIF28 or SRIF14): 36 folds
[6]; [19]
  Intravenous administration AUC: 4288 nM·min
  Intravenous administration C0: 1013 nM
  Intravenous administration MRT: 22.2 min
  Intravenous administration T1/2: 35.7 min
[6]; [20]
  Subcutaneous administration AUC: 3515 nM·min
  Subcutaneous administration Cmax: 23.5 nM
  Subcutaneous administration MRT: 112 min
  Subcutaneous administration T1/2: 70.6 min
[6]; [21]
  BA: 82%
SSTR3 [7]; Table 3E, Example 67-4, read-out: IC50 of the agonist activity, SSTR3
  IC50: 3.8 nM
SSTR5 [8]
  IC50: 41 nM
SSTR3 [9]
  IC50: 40 nM

## C(disialo)-R-K-SRIF14 [Example 18]
[10]; [22]
  GH: 912 ng/mL
[10]; [23]
  GH: 291 ng/mL
[10]; [24]
  GH: 12 ng/mL
SSTR3 [11]
  IC50: 0.231 nM
  Ki: 0.0791 nM
SSTR5 [12]
  IC50: 0.187 nM
  Ki: 0.106 nM
SSTR1 [13]
  IC50: 1.2 ± 0.6 nM
SSTR1 [14]
  IC50: 3.09 nM
  Ki: 2.56 nM
SSTR5 [15]
  IC50: 0.052 ± 0.032 nM
SSTR1-SSTR5
  affinity towards SSTR1-SSTR5, folds higher than S1C(disialo)-SRIF28: 0.7-2.4 folds
SSTR4 [4]; [25]
  IC50: 0.05 ± 0.025 nM
SSTR2 [16]
  IC50: 0.104 nM
  Ki: 0.0551 nM
SSTR2 [5]; [26]
  IC50: 0.055 ± 0.015 nM
[6]; rats
  extension of t1/2 compared to the non-glycosylated form (SRIF28 or SRIF14): 38 folds
  increase of AUC compared to the non-glycosylated form (SRIF28 or SRIF14): 55 folds
[6]; [19]
  Intravenous administration AUC: 6571 nM·min
  Intravenous administration C0: 429 nM
  Intravenous administration MRT: 22.5 min
  Intravenous administration T1/2: 18.9 min
[6]; [20]
  Subcutaneous administration AUC: 1996 nM·min
  Subcutaneous administration Cmax: 32.5 nM
  Subcutaneous administration MRT: 45.2 min
  Subcutaneous administration T1/2: 28.4 min
[6]; [21]
  BA: 30%
SSTR3 [7]; [27]
  IC50: 0.18 ± 0.1 nM

## S1C(disialo)-SRIF28 [Example 1]
SSTR2 [1]
  IC50: 0.543 nM
  Ki: 0.289 nM
[10]; Table 7 (Example 86), subcutaneous, dose 1 nmol/kg, 1 hour before GRF, plasma GH 5 minutes after GRF, vehicle 861
  GH: 490 ng/mL
[10]; Table 7 (Example 86), subcutaneous, dose 10 nmol/kg, 1 hour before GRF, plasma GH 5 minutes after GRF, vehicle 861
  GH: 17.1 ng/mL
[10]; [22]
  GH: 787 ng/mL
[10]; [23]
  GH: 182 ng/mL
[10]; Table 8 (Example 87), dose 10 nmol/kg, vehicle 1012
  GH: 15 ng/mL
[10]; [24]
  GH: 8 ng/mL
[10]; Table 8 (Example 87), dose 100 nmol/kg, vehicle 1012
  GH: 7 ng/mL
SSTR3 [11]
  IC50: 0.48 nM
  Ki: 0.164 nM
SSTR1 [3]; [17]
  IC50: 7.71 nM
SSTR1 [3]; [18]
  Ki: 6.45 nM
SSTR5 [12]
  IC50: 0.442 nM
  Ki: 0.25 nM
SSTR1 [13]
  IC50: 2.2 ± 1.1 nM
SSTR1 [14]
  IC50: 2.19 nM
  Ki: 1.81 nM
SSTR5 [15]
  IC50: 0.056 ± 0.028 nM
SSTR4 [4]; [25]
  IC50: 0.065 ± 0.042 nM
SSTR2 [16]
  IC50: 0.109 nM
  Ki: 0.0576 nM
SSTR2 [5]; [26]
  IC50: 0.075 ± 0.03 nM
[6]; [28]
  AUC, intravenous administration: 5086 nM·min
  MRT, intravenous administration: 20.4 min
  t1/2, intravenous administration: 18.1 min
[6]; Table 4, rats, 40 nmol/kg intravenous, extrapolation method
  C0 (predicted initial concentration), intravenous administration: 780 nM
[6]; [29]
  AUC, subcutaneous administration: 1273 nM·min
  Cmax, subcutaneous administration: 19.9 nM
  MRT, subcutaneous administration: 43.8 min
  t1/2, subcutaneous administration: 26.0 min
[6]; as measured in the method of Examples 68-72
  increase in half-life in blood: ≥ 10 folds
[6]; rats
  extension of t1/2 compared to the non-glycosylated form (SRIF28 or SRIF14): 13 folds
  increase of AUC compared to the non-glycosylated form (SRIF28 or SRIF14): 11 folds
[6]; [30]
  Intravenous administration AUC: 4855 nM·min
  Intravenous administration C0: 686 nM
  Intravenous administration MRT: 18.6 min
  Intravenous administration t1/2: 16.9 min
[6]; [19]
  Intravenous administration AUC: 5190 nM·min
  Intravenous administration C0: 633 nM
  Intravenous administration MRT: 19.1 min
  Intravenous administration T1/2: 17.7 min
[6]; [31]
  Subcutaneous administration AUC: 1773 nM·min
  Subcutaneous administration Cmax: 28.9 nM
  Subcutaneous administration MRT: 47.9 min
  Subcutaneous administration t1/2: 29.8 min
[6]; [20]
  Subcutaneous administration AUC: 1946 nM·min
  Subcutaneous administration Cmax: 30.1 nM
  Subcutaneous administration MRT: 49.2 min
  Subcutaneous administration T1/2: 31.2 min
[6]; rats, BA=(AUC(sc)/Dose(sc))/(AUC(iv)/Dose(iv)), Table 5A
  BA: 37%
[6]; [21]
  BA: 38%
[6]; rats, Examples 69-72 (text on Table 5A)
  bioavailability (BA), subcutaneous administration: 37%
SSTR3 [7]; [27]
  IC50: 0.13 ± 0.06 nM
SSTR5 [8]
  IC50: 1.61 nM
SSTR3 [9]
  IC50: 1.08 nM
  Ki: 0.676 nM

## S1C(disialo).E12C(disialo)-SRIF28 [Example 47]
SSTR2 [1]
  IC50: 2.7 nM
  Ki: 1.44 nM
SSTR4 [2]
  IC50: 20 nM
SSTR1 [3]; [17]
  IC50: 22 nM
SSTR5 [8]
  IC50: 2.11 nM
SSTR3 [9]
  IC50: 4.62 nM
  Ki: 1.58 nM
